Protein sequences, listed by entry. Tags and fused reporters are not part of them. Residues count along the entry.
UniProt A9YUC7, 2-528 K136R: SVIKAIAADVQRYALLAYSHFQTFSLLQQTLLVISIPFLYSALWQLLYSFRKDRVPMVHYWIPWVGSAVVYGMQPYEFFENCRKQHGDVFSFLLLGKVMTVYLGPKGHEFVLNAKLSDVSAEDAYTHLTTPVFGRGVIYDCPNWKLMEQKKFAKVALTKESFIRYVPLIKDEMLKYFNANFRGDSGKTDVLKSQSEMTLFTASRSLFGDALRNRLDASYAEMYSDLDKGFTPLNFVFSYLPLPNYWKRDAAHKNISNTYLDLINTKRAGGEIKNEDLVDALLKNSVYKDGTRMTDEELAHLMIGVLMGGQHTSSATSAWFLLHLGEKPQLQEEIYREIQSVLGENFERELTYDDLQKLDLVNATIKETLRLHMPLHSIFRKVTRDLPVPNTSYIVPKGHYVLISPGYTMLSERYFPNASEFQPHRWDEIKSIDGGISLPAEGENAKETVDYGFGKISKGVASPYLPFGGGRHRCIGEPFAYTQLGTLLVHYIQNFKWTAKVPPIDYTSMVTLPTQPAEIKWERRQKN

According to publication PMC10668980, “Molecular Cloning, Heterologous Expression, Purification, and Evaluation of Protein–Ligand Interactions of CYP51 of Candida krusei Azole-Resistant Fungal Strain” (Biomedicines, 2023):

Experiments:
[1] = target: T1, C. krusei CYP51 (C.krCYP51) (Pichia kudriavzevii, UniProt A9YUC7, K136R); conditions: azoles
[2] = target: T1, C. krusei CYP51 (C.krCYP51); test: biochemical

`Clc1ccc(COC(Cn2ccnc2)c2ccc(Cl)cc2Cl)cc1` (stereo not drawn) [Econazole] was tested, and the ΔAmax ([1]; absorbance change at ligand saturation) was 0.058, the “Type of Spectral Response” value ([1]; difference spectrum 350–500 nm) was “type II” and the pKd [2] was 8.89.

pKd: −log10 of the molar value.
